By UniProt entry, the sequences of proteins in these tests, tags left out.
UniProt P04049, whole entry Y340D/Y341D: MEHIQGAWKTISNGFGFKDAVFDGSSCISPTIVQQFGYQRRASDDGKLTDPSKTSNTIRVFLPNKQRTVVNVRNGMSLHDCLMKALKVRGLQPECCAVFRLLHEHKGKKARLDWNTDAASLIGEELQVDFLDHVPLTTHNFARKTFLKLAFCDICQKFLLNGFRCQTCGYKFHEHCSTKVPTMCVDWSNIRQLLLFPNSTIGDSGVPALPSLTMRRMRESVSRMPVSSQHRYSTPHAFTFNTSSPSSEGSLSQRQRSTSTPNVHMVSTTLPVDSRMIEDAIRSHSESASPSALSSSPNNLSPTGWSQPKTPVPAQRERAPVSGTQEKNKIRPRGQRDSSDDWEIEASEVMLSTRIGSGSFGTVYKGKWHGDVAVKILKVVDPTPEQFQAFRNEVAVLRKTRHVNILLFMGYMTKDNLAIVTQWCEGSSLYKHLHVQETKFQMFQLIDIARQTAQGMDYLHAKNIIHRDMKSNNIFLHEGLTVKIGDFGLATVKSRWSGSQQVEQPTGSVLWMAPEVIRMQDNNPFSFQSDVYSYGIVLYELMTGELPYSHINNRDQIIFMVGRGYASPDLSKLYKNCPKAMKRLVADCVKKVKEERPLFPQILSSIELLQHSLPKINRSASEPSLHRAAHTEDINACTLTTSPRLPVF
UniProt P15056, whole entry V600E: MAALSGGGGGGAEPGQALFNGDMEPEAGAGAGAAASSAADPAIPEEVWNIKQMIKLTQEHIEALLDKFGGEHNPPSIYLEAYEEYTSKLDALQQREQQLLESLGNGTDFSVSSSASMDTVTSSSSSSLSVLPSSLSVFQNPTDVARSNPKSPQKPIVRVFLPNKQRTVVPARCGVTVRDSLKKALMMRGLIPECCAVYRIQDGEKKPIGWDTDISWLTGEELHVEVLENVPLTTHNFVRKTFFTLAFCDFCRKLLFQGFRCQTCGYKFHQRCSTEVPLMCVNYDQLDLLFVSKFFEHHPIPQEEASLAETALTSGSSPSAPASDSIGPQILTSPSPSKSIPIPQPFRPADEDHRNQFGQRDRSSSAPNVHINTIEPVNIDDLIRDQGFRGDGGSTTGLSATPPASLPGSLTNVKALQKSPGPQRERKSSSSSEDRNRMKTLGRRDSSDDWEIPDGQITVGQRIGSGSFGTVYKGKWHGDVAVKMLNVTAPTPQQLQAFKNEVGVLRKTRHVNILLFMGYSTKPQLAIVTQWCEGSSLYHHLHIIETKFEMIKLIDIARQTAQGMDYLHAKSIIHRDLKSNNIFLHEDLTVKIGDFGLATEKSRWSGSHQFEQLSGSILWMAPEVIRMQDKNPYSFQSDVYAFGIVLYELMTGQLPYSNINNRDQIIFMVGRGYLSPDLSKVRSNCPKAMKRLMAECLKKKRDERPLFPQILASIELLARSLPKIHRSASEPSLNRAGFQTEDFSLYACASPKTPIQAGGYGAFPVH

The target in one assay is C-Raf (Y340D/Y341D) (Homo sapiens (Human), UniProt P04049, Y340D/Y341D). The experiment in a line: Raf IC50 assay, time-resolved fluorescence energy transfer (TR-FRET), C-Raf. The format is biochemical. The conditions noted are these: 0.5 nM C-Raf, 0.1 mM ATP, GST-tagged MEK1 substrate, 60 min preincubation. The method, then: The assay was carried out in reactions (10 μL) containing 0.0625 nM B-Raf or 0.5 nM C-Raf, 25 mM Tris pH7.4, 10 mM MgCl2, 0.5 mM EGTA, 0.5 mM […], 5 mM beta-glycerophosphate, 0.01% Triton X-100, 2.5 mM DTT, 0.1% BSA, 0.1 mM ATP, 13.7 nM GST-tagged MEK1 (Full-length protein with K97R mutation, recombinant protein purified from bacterial expression system) and 0-5 μM compounds disclosed herein (final concentration of 1% DMSO). The enzyme was incubated with the compounds at room temperature for 60 minutes and the reactions were initiated by the addition of ATP and GST-MEK1. After incubating at room temperature for 60 minutes, an equal volume of stop buffer containing 25 mM Tris pH7.4, 400 mM KF, 50 mM EDTA, 0.01% BSA, 0.01% Triton X-100, 1 test of Eu3+ Cryptate-conjugated rabbit polyclonal antibody anti-Phospho MEK1/2 (Ser217/221) and 1 test of d2-conjugated mouse monoclonal antibody anti-glutathione S-transferase was added to stop the reactions. Plates were sealed and incubated at room temperature for 2 hours, and then the TR-FRET signals were read on BMG PHERAstar FS instrument. The IC50 for each compound was calculated by non linear regression by Graphpad Prism software.
A general note: TR-FRET usually uses a lanthanide donor and a delayed reading to cut background.
In general, IC50 refers to the concentration that inhibits the measured activity by half. Read a high IC50 as a need for much substance. `Cc1cc2[nH]c([C@H]3[C@@H]4Oc5ccc(Oc6ccnc7c6CCC(=O)N7)cc5[C@@H]43)nc2cc1F` [Compound 2.4b] yielded an IC50 of 2.5 nM. In other words, the single-digit nanomolar range.

A further assay addresses B-Raf (V600E) (Homo sapiens (Human), UniProt P15056, V600E). The experiment in a line: Raf IC50 assay, time-resolved fluorescence energy transfer (TR-FRET), B-Raf. The conditions noted are these: 0.0625 nM B-Raf, 0.1 mM ATP, GST-tagged MEK1 substrate, 60 min preincubation. The class given is biochemical. The method, then: The enzyme was incubated with the compounds at room temperature for 60 minutes and the reactions were initiated by the addition of ATP and GST-MEK1. […] Plates were sealed and incubated at room temperature for 2 hours, and then the TR-FRET signals were read on BMG PHERAstar FS instrument. The IC50 for each compound was calculated by non linear regression by Graphpad Prism software.
As for `O=C1CCc2c(Oc3ccc4c(c3)[C@@H]3[C@H](O4)[C@H]3c3nc4cc(Cl)c(C(F)(F)F)cc4[nH]3)ccnc2N1` [Compound 2.5a], the IC50 is 126 nM.

`O=C1CCc2c(Oc3ccc4c(c3)[C@H]3[C@@H](O4)[C@@H]3c3nc4cc(Cl)c(C(F)(F)F)cc4[nH]3)ccnc2N1` [Compound 2.5b] returned an IC50 of 11 nM.

As to `Cc1cc2[nH]c([C@H]3[C@@H]4Oc5ccc(Oc6ccnc7c6CCC(=O)N7)cc5[C@@H]43)nc2cc1F` [Compound 2.4b], the half-maximal inhibitory concentration (IC50) was determined as 21 nM.

The compound `Cc1cc2nc(C3C4Oc5cc(Cl)c(Oc6ccnc7c6CCC(=O)N7)cc5C43)[nH]c2cc1F` (racemic) [Compound 2.37, (±)-exo-5-((4-chloro-1-(6-fluoro-5-methyl-1H-benzo[d]imidazol-2-yl)-1a,6b-dihydro-1H-cyclopropa[b]benzofuran-5-yl)oxy)-3,4-dihydro-1,8-naphthyridin-2(1H)-one] displayed a 50% inhibitory concentration (IC50) of 173 nM.

In turn, `CNC(=O)c1cc(Oc2ccc3c(c2)C2C(O3)C2c2nc3ccc(C(F)(F)F)cc3[nH]2)ccn1` (racemic) [Compound 3.1, (±)-exo-N-methyl-4-((1-(6-(trifluoromethyl)-1H-benzo[d]imidazol-2-yl)-1a,6b-dihydro-1H-cyclopropa[b]benzofuran-5-yl)oxy)picolinamide] showed a half-inhibitory concentration (IC50) of 56 nM.

Take `O=C1CCc2c(Oc3ccc4c(c3)[C@@H]3[C@H](O4)[C@H]3c3nc4cc(Cl)c(Cl)cc4[nH]3)ccnc2N1` [Compound 2.3a]: 11 nM corresponded to half-maximal inhibition (IC50).

As for `O=C1CCc2c(Oc3ccc4c(c3)C3C(O4)C3c3nc(C(F)(F)F)c[nH]3)ccnc2N1` (racemic) [Compound 2.33, (±)-exo-5-((1-(4-(trifluoromethyl)-1H-imidazol-2-yl)-1a,6b-dihydro-1H-cyclopropa[b]benzofuran-5-yl)oxy)-3,4-dihydro-1,8-naphthyridin-2(1H)-one], the concentration for half-maximal inhibition (IC50) was 6 nM. Against the preceding compound, the IC50 is about 1.8-fold lower.

`Cc1cc2[nH]c([C@@H]3[C@H]4Oc5ccc(Oc6ccnc7c6CCC(=O)N7)cc5[C@H]43)nc2cc1F` [Compound 2.4a]: the 50% inhibitory concentration (IC50) is 3.4 nM.

For `FC(F)(F)c1ccc2nc(C3C4Oc5ccc(Oc6ncnc7[nH]cnc67)cc5C43)[nH]c2c1` (racemic) [Compound 3.5, (±)-exo-6-((1-(6-(trifluoromethyl)-1H-benzo[d]imidazol-2-yl)-1a,6b-dihydro-1H-cyclopropa[b]benzofuran-5-yl)oxy)-9H-purine], it took 56 nM to reach half-maximal inhibition (IC50).

On to `FC(F)(F)c1ccc2nc(C3C4Oc5ccc(Oc6ccncn6)cc5C43)[nH]c2c1` (racemic) [Compound 3.2, (±)-exo-2-(5-(pyrimidin-4-yloxy)-1a,6b-dihydro-1H-cyclopropa[b]benzofuran-1-yl)-6-(trifluoromethyl)-1H-benzo[d]imidazole], for which the concentration for half-maximal inhibition (IC50) stood at 569 nM.

As for `Cc1cc(Oc2ccnc3c2CCC(=O)N3)cc2c1OC1C(c3nc4ccc(C(F)(F)F)cc4[nH]3)C21` (racemic) [Compound 2.35, (±)-exo-5-((3-methyl-1-(6-(trifluoromethyl)-1H-benzo[d]imidazol-2-yl)-1a,6b-dihydro-1H-cyclopropa[b]benzofuran-5-yl)oxy)-3,4-dihydro-1,8-naphthyridin-2(1H)-one], the IC50 amounted to 61 nM. Compared with the last compound, the IC50 is about 9.3-fold lower.

`O=C1CCc2c(Oc3ccc4c(c3)[C@H]3[C@@H](O4)[C@@H]3c3nc4cc(Cl)c(Cl)cc4[nH]3)ccnc2N1` [Compound 2.3b]: half-maximal inhibition (IC50) required 32 nM.

For the origin of these results see patent US9273046B2, “Fused tricyclic compounds as Raf kinase inhibitors” (BeiGene, LTD., priority 2011, dated 2016).
